Here are results for one substance from patent publication US20140193824A1, “High-Resolution Clonal Typing of Escherichia coli” (priority 2013, published 2014).

This experiment has as its system clinical E. coli isolates.

Read-outs that look alike come from different tables or passages of the source.

On to trimethoprim-sulfamethoxazole [T/S], for which the “Resistance among rejected isolates” value (Children's Hospital, Seattle) is 58.7%; the “Resistance among rejected isolates” value (Harborview Med. Center, Seattle) stood at 58.3%; the “Resistance among rejected isolates” value (Univ. of Münster, Münster) stood at 46.6%; the “Resistance among rejected isolates” value (VA Med. Center, Minneapolis) turned out to be 51.9%.
